Reference: ChEMBL document CHEMBL4330144, “A mitochondria-targeted organic arsenical accelerates mitochondrial metabolic disorder and function injury” (Bioorg Med Chem, 2019)
pIC50: −log10 of the molar value.

Tests used:
HL-60 [1] = assay: Cytotoxicity against human HL60 cells after 48 hrs by MTT assay; assay type: functional, cell-based
MCF7 [2] = assay: Cytotoxicity against human MCF7 cells after 24 hrs by MTT assay; assay type: functional, cell-based
HeLa [3] = assay: Cytotoxicity against human HeLa cells after 24 hrs by MTT assay; assay type: functional, cell-based
NB-4 [4] = assay: Cytotoxicity against human NB4 cells after 24 hrs by MTT assay; assay type: functional, cell-based
HEK293 [5] = assay: Cytotoxicity against HEK293 cells after 48 hrs by MTT assay; assay type: cell-based, Homo sapiens
HL-60 [6] = assay: Cytotoxicity against human HL60 cells after 24 hrs by MTT assay; assay type: functional, cell-based
HEK293 [7] = assay: Cytotoxicity against HEK293 cells after 24 hrs by MTT assay; assay type: cell-based, Homo sapiens
SGC-7901 [8] = assay: Cytotoxicity against human SGC7901 cells after 24 hrs by MTT assay; assay type: functional, cell-based
SGC-7901 [9] = assay: Cytotoxicity against human SGC7901 cells after 48 hrs by MTT assay; assay type: functional, cell-based
NB-4 [10] = assay: Cytotoxicity against human NB4 cells after 48 hrs by MTT assay; assay type: functional, cell-based
HeLa [11] = assay: Cytotoxicity against human HeLa cells after 48 hrs by MTT assay; assay type: functional, cell-based
MCF7 [12] = assay: Cytotoxicity against human MCF7 cells after 48 hrs by MTT assay; assay type: functional, cell-based

## Nc1ccc([As]2SCCCS2)cc1
HL-60 [1]
  pIC50: 6.00
MCF7 [2]
  pIC50: 5.05
HeLa [3]
  pIC50: 5.60
NB-4 [4]
  pIC50: 5.90
HEK293 [5]
  pIC50: 5.57
HL-60 [6]
  pIC50: 5.95
HEK293 [7]
  pIC50: 5.20
SGC-7901 [8]
  pIC50: 5.19
SGC-7901 [9]
  pIC50: 5.66
NB-4 [10]
  pIC50: 6.09
HeLa [11]
  pIC50: 5.99
MCF7 [12]
  pIC50: 5.47
